Assay outcomes: PubChem BioAssay, Broad Institute
UUG fidelity – yeast start codon fidelity modulation; activity score, % at 18.7 µM; actives 0.13% (n = 350,000); S. cerevisiae UUG-firefly luciferase reporter, luminescence/redox ratio; AID 602363;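 active means replicate mean at a twofold rise or more, about +100% in these data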;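 further: firefly luciferase made from a UUG start codon reports start codon fidelity; reporter light over untreated wells divided by growth signal over untreated wells; some hits fall short of that in this replicate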
PGC1a acetyl inh – lowers PGC1a acetylation signal in U2OS cells | inhibition, % at 15.6 µM | AlphaScreen anti-acetyl-lysine; with virally co-expressed GCN5 acetyltransferase | 350,000 compounds, 0.17% hits;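 active = every replicate shows inhibition of at least 40%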
PglD DTNB – inhibitors of Campylobacter jejuni PglD acetyltransferase; purified PglD enzyme, DTNB colorimetric CoA detection; inhibition, % at 12.5 µM; 360,000 compounds, 0.098% hits; AID 602405; in the data active = inhibition above about 16%, passing the limit was not always enough
esBAF inh – inhibitors of esBAF chromatin remodeling in mouse ES cells; Bmi1-luciferase knock-in reporter, 24 h; 100% = twice the neutral-well signal; reporter increase, % at 12.5 µM; 350,000 compounds, 2% hits; AID 602393; in the data active = activation above about 40%;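 also: a rise in the Bmi1 reporter signal indicates esBAF inhibition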
Statin myotox sup – suppression of simvastatin myotoxicity; C2C12 myotubes + simvastatin, ATP luminescence, 48 h; scaled: DMSO 0, geranylgeraniol control 100; rescue of ATP level, % at 7.49 µM; 330,000 compounds, 0.78% hits; AID 602340;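 active = mean ATP rescue above about 67%, or every replicate alone reaching that limit, limit read from the data, passing the limit was not always enough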;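 also: myotubes were challenged with 10 µM simvastatin during compound exposure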
E-sel inducer – induces E-selectin expression in human endothelial cells | AID 686992 | 260,000 compounds, 0.37% hits | P16581 | activation, % at 7.58 µM | HUVEC E-selectin immunofluorescence imaging; normalized: neutral wells 0, TNF-alpha wells 100;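 active = mean E-selectin-positive cell signal at least 10% of the positive control, reached in at least 60% of replicates, without over 20% cell loss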
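Test system: HUVEC; input: 3,000 HUVEC/well; measured by: immunofluorescence imaging; read-out: % PE-positive cells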
Numbers stand for hits; i = inactive; nt = no result given. Most compounds without a hit are left out; they make up all but 2.8% or so of the library.

SMILES	UUG fidelity	PGC1a acetyl inh	PglD DTNB	esBAF inh	Statin myotox sup	E-sel inducer
O=C(C[C@@H]1CC[C@H]2[C@@H](COC[C@@H](O)CN2Cc2ccc(C(F)(F)F)cc2)O1)NCCc1ccccc1	nt	i	i	i	i	i
COc1ccc(NC(=O)N(C)C[C@H]2Oc3ccc(NS(=O)(=O)c4cccs4)cc3CC(=O)N([C@@H](C)CO)C[C@@H]2C)cc1	i	i	i	i	i	i
Cc1ccc(-c2csc(NC(=O)CSC3=NCCS3)n2)cc1	i	i	i	45	i	nt
Cc1sc(NC(=O)CSC2=NCCS2)nc1-c1ccccc1	i	i	i	nt	nt	nt
O=C(/C=C/Nc1ccccc1C(F)(F)F)c1ccco1	i	i	i	93	i	i
NC(=O)c1ccccc1N/C=C/C(=O)c1ccco1	nt	i	nt	i	i	nt
CCOc1ccc(/C=N/NC(=O)c2ccoc2C)cc1OC	i	nt	i	48	i	i
COc1cc(/C=N/NC(=O)c2cc(C)oc2C)ccc1O	i	i	i	i	i	i
COc1ccc(C=NNC(=O)c2cc(C)oc2C)cc1O	i	i	i	66	i	i
COCC#Cc1cnc2c(c1)C(=O)N([C@H](C)CO)C[C@H](C)[C@@H](CN(C)C(=O)C1CCC1)O2	i	i	i	i	i	i
CCC(=O)Nc1ccc2c(c1)C(=O)N(C)C[C@@H](OC)[C@@H](C)CN(C(=O)c1ccccn1)[C@@H](C)CO2	i	i	i	i	i	i
CC(=Nc1ccc(C)c(C)c1)C1=C(O)CSC1=O	i	i	i	51	i	nt
CN1CCN(C(=O)C[C@H]2CC[C@H]3[C@@H](COC[C@H](O)CN3Cc3cccc(Cl)c3)O2)CC1	i	i	i	i	i	i
C[C@H](CO)N1C[C@H](C)[C@H](CN(C)C(=O)Nc2ccc3c(c2)OCO3)Oc2c(NS(=O)(=O)c3ccc(Cl)cc3)cccc2C1=O	i	i	i	i	i	50
C[C@@H]1CN([C@H](C)CO)C(=O)c2cccc(NS(=O)(=O)c3ccc(Cl)cc3)c2O[C@H]1CN(C)C(=O)Nc1ccc2c(c1)OCO2	i	i	i	i	i	i
Cc1ccc(S(=O)(=O)Nc2cccc3c2O[C@H](CN(C)C(=O)Nc2ccc4c(c2)OCO4)[C@H](C)CN([C@H](C)CO)C3=O)cc1	i	i	i	72	i	i
Cc1ccc(S(=O)(=O)Nc2cccc3c2O[C@H](CN(C)C(=O)Nc2ccc4c(c2)OCO4)[C@@H](C)CN([C@@H](C)CO)C3=O)cc1	i	i	i	i	i	i
C[C@@H]1CN([C@@H](C)CO)C(=O)c2cccc(NS(=O)(=O)c3ccc(Cl)cc3)c2O[C@H]1CN(C)C(=O)Nc1ccc2c(c1)OCO2	i	i	i	i	i	98
Cc1ccccc1S(=O)(=O)N[C@H]1CC[C@H](CCNS(=O)(=O)c2cccc(F)c2)O[C@@H]1CO	i	i	i	i	i	i
CN(C)c1ccc(NC(=O)c2ccc(Cn3cc([N+](=O)[O-])cn3)cc2)cc1	i	i	i	57	i	nt
O=C(Nc1cnn(Cc2c(Cl)cccc2Cl)c1)c1ccc([N+](=O)[O-])cc1	i	i	nt	73	i	nt
CC=Cc1ccc2n(c1=O)C[C@H]1[C@H](CO)[C@@H](C(=O)N3CCCCC3)[C@@H]2N1C(=O)C1CCC1 (mixture of isomers)	nt	nt	i	i	i	i
COc1ccc(NC(=O)N(C)C[C@@H]2Oc3c(NS(=O)(=O)c4ccccc4)cccc3C(=O)N([C@@H](C)CO)C[C@H]2C)cc1	nt	i	nt	i	i	i
COc1cccc(N2C(=O)/C(=C\c3cccs3)NC2=S)c1	nt	i	nt	43	i	i
COc1ccc(N2C(=O)/C(=C/c3cccnc3)NC2=S)cc1	nt	nt	nt	nt	nt	i
SMILES	UUG fidelity	PGC1a acetyl inh	PglD DTNB	esBAF inh	Statin myotox sup	E-sel inducer
CNC(=O)C[C@H]1CC[C@H]2[C@@H](COC[C@H](O)CN2C(=O)c2ccc3c(c2)OCO3)O1	nt	i	i	i	i	i
C[C@H](CO)N1C[C@H](C)[C@@H](CN(C)C(=O)Cc2ccncc2)Oc2ncc(C#C[C@@H](C)O)cc2C1=O	nt	i	i	i	i	i
Cc1cccc(-n2c(C)nc3cc(C(=O)N4CCOCC4)ccc32)c1	i	i	i	i	i	nt
Cc1cccc(-n2cnc3cc(C(=O)N4CCCCC4)ccc32)c1	i	i	i	44	nt	nt
Cc1ccc(S(=O)(=O)Nc2ccc3c(c2)CC(=O)N([C@@H](C)CO)C[C@H](C)[C@@H](CN(C)C(=O)NC2CCCCC2)O3)cc1	i	i	i	i	i	i
COc1ccc(S(=O)(=O)NCc2cccnc2)c2ccccc12	i	i	i	i	94	nt
COc1ccc(OC)c(S(=O)(=O)NCc2ccccc2)c1	i	nt	i	i	i	nt
COc1ccc(OC)c(S(=O)(=O)NCc2cccnc2)c1	i	i	i	i	126	nt
O=S(=O)(NCc1cccnc1)c1ccc(Br)c2ccccc12	i	nt	i	i	i	i
COc1cc(OC)cc(C(=O)N2c3ccc(F)cc3CCC2C)c1 (stereo not drawn)	i	i	i	i	90	nt
CCC(C)c1ccccc1OCCCNC1CCCC1 (stereo not drawn)	i	nt	i	i	i	nt
COc1ccccc1OCCNC1CCCC1	i	i	i	i	160	nt
Cc1cc(-n2c(C)cc(C(=O)CSc3ccccn3)c2C)no1	i	i	i	76	i	i
Cc1cc(-n2c(C)cc(C(=O)CSc3nnnn3-c3ccccc3)c2C)no1	i	i	i	i	i	nt
Cc1nnc(N2C(=O)C(O)=C(C(=O)c3ccco3)C2c2ccc(C(C)(C)C)cc2)s1 (stereo not drawn)	i	i	i	i	117	nt
Cc1nnc(N2C(=O)C(O)=C(C(=O)c3ccco3)C2c2ccc(F)cc2)s1 (stereo not drawn)	i	i	i	i	i	nt
Cc1cc(CNC(=O)c2ccc3nc(Cc4ccccc4F)oc3c2)nn1C	i	i	i	69	i	nt
CCC(=O)Nc1ccc2c(c1)C(=O)N(C)C[C@H](OC)[C@H](C)CN(Cc1cccnc1)[C@H](C)CO2	i	i	i	i	i	i
CC(=O)NC(CSC(CC(=O)c1ccco1)c1ccc(C)cc1)C(=O)O (stereo not drawn)	nt	nt	nt	43	i	nt
CN(C)c1ccc(/C=C(/C#N)C(=O)NCc2ccccc2)o1	nt	i	nt	48	i	nt
COc1cc(C(N)=O)cc(Cl)c1OCc1ccccc1	nt	nt	nt	nt	nt	i
COc1ccc(C(=O)CC(=O)c2ccccc2O)cc1	i	i	i	i	i	nt
CCC(=O)c1ccc(OCc2ccc(C(=O)OC)cc2)c(OC)c1	i	i	i	i	i	nt
NC(=O)c1ccc(OCc2ccccc2)nc1	i	i	i	60	i	i
O=C(NNC(=O)c1ccccc1OCc1ccccc1)c1ccccc1F	i	i	i	60	i	i
O=C(NNC(=O)c1ccccc1OCc1ccccc1)c1ccccc1O	i	i	i	i	i	i
COc1ccc(C(=O)CC(=O)c2ccccc2O)cc1OC	nt	i	nt	57	i	nt
